Source: patent publication US20170183383A1 (JIANG XIANXING, published 2017)

What was measured:
Assay in all cases: cell-based or functional assay
[1] = target: human glucagon-like peptide-1 receptor (human) (UniProt P43220)
[2] = target: human glucagon receptor (human) (UniProt P47871)
[3] = target: human glucagon-like peptide-1 receptor (human, UniProt P43220 24-463)

Row | GLP-1R (EC50, nM), CRE-luciferase in HEK-293 cells [3] [nM] | Molecule | GLP-1R (EC50, nM), CRE-luciferase in HEK-293 cells [1] [nM] | GCGR (EC50, nM), CRE-luciferase in HEK-293 cells [2] [nM]
1 | – | Exenatide (peptide) | 0.02 | > 100
2 | 2.5 | HSQGTFTSDYSKYLDSRRAQDFVQWLMNTKRNKNNIA (ligand) [Oxyntomodulin] | – | –
